# Data reported in US20060110492A1, “Preparation and food product comprising an active phytase” (priority 2003, published 2006).
# Assay: Fe retained in sedimented fraction of suspended salt (AES/ICP)
# Conditions: pellet of the pH 2 suspension dissolved in 15 g concentrated chloric acid
# Experimental: The prepared FePA as described in Example 3 was suspended either at pH 2 or at pH 5,5 in a concentration of 35.8 g per liter. After sedimentation, the supernatant fraction of both suspensions was analysed by AES/ICP.
# Subsequently, the suspension of pH=2 was centrifuged 10 minutes at 6000 rpm at room temperature. The pellet was dissolved in 15 g concentrated […] and the solution was analyzed by AES/ICP.
# This procedure was repeated with iron phosphate. This salt was prepared in the same way as the preparation of the essential cation phytates: the cation was dissolved as its sulfate, and subsequently precipitated with a basic solution of sodium phosphate. The precipitate was collected and washed.
substance,measurement,value
Iron-phytate [Fe-phytate],Fe retrieved in the soluble fraction,essentially all
